Where a name gives a salt, the structure may show the parent alone.

The record followed here is publication PMC10350927 (Journal of Medicinal Chemistry, 2023).

In this test the target is T1, mSUCNR1 (Mus musculus, UniProt Q99MT6).
T1 sequence (Q99MT6 1-317): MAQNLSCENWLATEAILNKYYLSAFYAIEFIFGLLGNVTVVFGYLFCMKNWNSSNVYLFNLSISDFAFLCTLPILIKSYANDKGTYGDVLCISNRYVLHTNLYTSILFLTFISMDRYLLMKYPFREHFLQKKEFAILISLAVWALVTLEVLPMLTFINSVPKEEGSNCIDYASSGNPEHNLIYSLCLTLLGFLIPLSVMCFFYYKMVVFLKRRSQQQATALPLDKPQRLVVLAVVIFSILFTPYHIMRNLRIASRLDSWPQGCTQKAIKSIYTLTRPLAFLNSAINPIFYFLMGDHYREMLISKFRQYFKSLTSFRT
Description: cAMP assay, agonist potency at mSUCNR1. Format: cell-based. The arrangement: expressed in transfected cells; host or cells: Flp-In T-REx 293. Conditions: Flp-In T-REx 293 cells. In general terms: Cyclic AMP is a second messenger, typically raised through Gs and lowered through Gi signalling.
Turning to `CC(C)(C)OC(=O)NCCCCOc1ccc(-c2cccc(C(=O)N[C@@H](CC(=O)O)C(=O)O)n2)cc1` [Compound 15b, (6-(4-(4-((tert-Butoxycarbonyl)amino)butoxy)phenyl)picolinoyl)-L-aspartic acid], the Emax (as a rule, the maximal effect, on the per cent scale that the assay sets) is 75%. For `CN(C)CCCCCCOc1ccc(-c2ccc(C(=O)N[C@@H](CC(=O)O)C(=O)O)o2)cc1` [Compound 21, (S)-6-(4-(5-((1,2-Dicarboxyethyl)carbamoyl)furan-2-yl)phenoxy)-N,N-dimethylhexan-1-aminium 2,2,2-trifluoroacetate] the value was 98%; for `O=C(O)C[C@H](NC(=O)c1ccc(-c2ccc(OCCCCCCNCCNc3ccc([N+](=O)[O-])c4nonc34)cc2)o1)C(=O)O` [Compound 22, (S)-6-(4-(5-((1,2-Dicarboxyethyl)carbamoyl)furan-2-yl)phenoxy)-N-(2-((7-nitrobenzo[c][1,2,5]oxadiazol-4-yl)amino)ethyl)hexan-1-aminium 2,2,2-trifluoroacetate], 110%. To `CC(C)(C)OC(=O)NCCNCCCCCCOc1ccc(-c2ccc(C(=O)N[C@@H](CC(=O)O)C(=O)O)o2)cc1` [Compound 17, (S)-N-(2-((tert-Butoxycarbonyl)amino)ethyl)-6-(4-(5-((1,2-dicarboxyethyl)carbamoyl)furan-2-yl)phenoxy)hexan-1-aminium 2,2,2-trifluoroacetate] belongs 101%; to `NCCCOc1ccc(-c2ccc(C(=O)N[C@@H](CC(=O)O)C(=O)O)o2)cc1` [Compound 9a, (S)-3-(4-(5-((1,2-Dicarboxyethyl)carbamoyl)furan-2-yl)phenoxy)propan-1-aminium 2,2,2-trifluoroacetate], 105%; to `CC(C)(C)OC(=O)NCCCCCCOc1ccc(-c2ccc(C(=O)N[C@@H](CC(=O)O)C(=O)O)o2)cc1` [Compound 8d, (5-(4-((6-((tert-Butoxycarbonyl)amino)hexyl)oxy)phenyl)furan-2-carbonyl)-L-aspartic acid], 92%. Consider `CC(C)(C)OC(=O)NCCCCOc1ccc(-c2ccc(C(=O)N[C@@H](CC(=O)O)C(=O)O)o2)cc1` [Compound 8b, (5-(4-(4-((tert-Butoxycarbonyl)amino)butoxy)phenyl)furan-2-carbonyl)-L-aspartic acid], for which the maximum response (Emax) was 89%.

Turning to `CNCCCCCCOc1ccc(-c2ccc(C(=O)N[C@@H](CC(=O)O)C(=O)O)o2)cc1` [Compound 20, (S)-6-(4-(5-((1,2-Dicarboxyethyl)carbamoyl)furan-2-yl)phenoxy)-N-methylhexan-1-aminium 2,2,2-trifluoroacetate], the maximal effect (Emax) was 103%.

`CC(C)(C)OC(=O)NCCCOc1ccc(-c2ccc(C(=O)N[C@@H](CC(=O)O)C(=O)O)o2)cc1` [Compound 8a, (5-(4-(3-((tert-Butoxycarbonyl)amino)propoxy)phenyl)furan-2-carbonyl)-L-aspartic acid]: the Emax is 93%.

In turn, `NCCCCOc1ccc(-c2ccc(C(=O)N[C@@H](CC(=O)O)C(=O)O)o2)cc1` [Compound 9b, (5-(4-(4-Aminobutoxy)phenyl)furan-2-carbonyl)-L-aspartic acid hydrochloride] had a maximum response (Emax) of 113%.

The compound `CC(C)(C)OC(=O)NCCCOc1ccc(-c2cccc(C(=O)N[C@@H](CC(=O)O)C(=O)O)n2)cc1` [Compound 15a, (6-(4-(3-((tert-Butoxycarbonyl)amino)propoxy)phenyl)picolinoyl)-L-aspartic acid] had an Emax of 79%.

Regarding `O=C(O)C[C@H](NC(=O)c1cccc(-c2ccc(OC(F)(F)F)cc2)n1)C(=O)O` [Compound 3, reference compound], the Emax was 75%.

For the compound `CC(C)(C)OC(=O)NCCCCCOc1ccc(-c2ccc(C(=O)N[C@@H](CC(=O)O)C(=O)O)o2)cc1` [Compound 8c, (5-(4-((5-((tert-Butoxycarbonyl)amino)pentyl)oxy)phenyl)furan-2-carbonyl)-L-aspartic acid], the Emax was 84%.

`CC(C)(C)OC(=O)NCCOCCOc1ccc(-c2cccc(C(=O)N[C@@H](CC(=O)O)C(=O)O)n2)cc1` [Compound 15e, (6-(4-(2-(2-((tert-Butoxycarbonyl)amino)ethoxy)ethoxy)phenyl)picolinoyl)-L-aspartic acid] gave a maximal response (Emax) of 86%. For `CC(C)(C)OC(=O)NCCCCCOc1ccc(-c2cccc(C(=O)N[C@@H](CC(=O)O)C(=O)O)n2)cc1` [Compound 15c, (6-(4-((5-((tert-Butoxycarbonyl)amino)pentyl)oxy)phenyl)picolinoyl)-L-aspartic acid] the value was 84%. As for `CC(C)(C)OC(=O)NCCCCCCOc1ccc(-c2cccc(C(=O)N[C@@H](CC(=O)O)C(=O)O)n2)cc1` [Compound 15d, (6-(4-((6-((tert-Butoxycarbonyl)amino)hexyl)oxy)phenyl)picolinoyl)-L-aspartic acid], the maximal effect (Emax) was 74%. In turn, `NCCCCCOc1ccc(-c2ccc(C(=O)N[C@@H](CC(=O)O)C(=O)O)o2)cc1` [Compound 9c, (S)-5-(4-(5-((1,2-Dicarboxyethyl)carbamoyl)furan-2-yl)phenoxy)pentan-1-aminium 2,2,2-trifluoroacetate] gave a maximal effect (Emax) of 102%.
